# OPERA 2.9 data: properties

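OPERA's authors assembled the values from existing databases and did not measure them anew. One number stands for a compound and property, with no spread given. Conditions of the individual experiments are not part of the data. A value may pool stereoisomers or salt forms, and the file does not say which form was measured. Unmarked limits or estimates from the upstream databases cannot be ruled out.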

Melting points are in °C. The boiling point refers to atmospheric pressure (760 mmHg), by the definition of the set. The octanol-water partition coefficient is given as log10; larger values mean a more lipophilic compound. Water solubility is log10 of mol/L, nominally at 25 °C; higher is more soluble. Vapor pressure is log10 of mmHg; the set covers 15 to 30 °C, mostly 20 to 25 °C. The unbound fraction in human plasma runs from 0 (all bound) to 1 (all free). Clint is human hepatic intrinsic clearance in µL/min per million cells; 0 means that no clearance was seen.

CO[C@@]1(NC(=O)Cc2cccs2)C(=O)N2C(C(=O)O)=C(COC(N)=O)CS[C@@H]21 [Cefoxitin] is reported with log S -3.341 (log10 mol/L) and plasma fu 0.6175. O=C1CCCC(=O)C1 [1,3-Cyclohexanedione] is reported with logP 0.461 and log vapor pressure -3.87 (log10 mmHg). Listed for CC/C=C\CC1=C(C)CCC1=O [Jasmone]: log S -2.045 (log10 mol/L) and log vapor pressure -2.043 (log10 mmHg). The entry for COc1cc(S(=O)(=O)Nc2ccccc2)c(OC)cc1N [4-Amino-2,5-dimethoxy-N-phenylbenzenesulfonamide] lists logP 1.81 and log S -4.058 (log10 mol/L) and log vapor pressure -5.95 (log10 mmHg). CC1(C)O[C@@](C)(C(=O)O)CC[C@H]1C(=O)O [(2R,5R)-2,6,6-trimethyloxane-2,5-dicarboxylic acid] is reported with melting point 208 °C and log S -1.189 (log10 mol/L).

Listed for CC(=O)OCCCS(=O)(=O)c1ccc(S(N)(=O)=O)s1 [3-[(5-Sulfamoyl-2-thienyl)sulfonyl]propyl acetate]: melting point 104 °C and log S -2.551 (log10 mol/L). Listed for COC(=O)c1c(Cl)nn(C)c1S(=O)(=O)NC(=O)Nc1nc(OC)cc(OC)n1 [Halosulfuron-methyl]: log vapor pressure -6.58 (log10 mmHg) and plasma fu 0.009244 and hepatic Clint 0 µL/min/10^6 cells. CCO[Si](=O)O [Silicic acid, ethyl ester] is reported with BP 171.4 °C and log S -3.804 (log10 mol/L) and log vapor pressure 0 (log10 mmHg). For CCCCCCCOC(=N)O [O-HEPTYL CARBAMATE] the data give melting point 66 °C and log S -2.62 (log10 mol/L). For C#CC(C)(O)CCC=C(C)CC (stereo not drawn) [6-Nonen-1-yn-3-ol, 3,7-dimethyl-] the data give logP 2.8 and log S -2.303 (log10 mol/L).

For C=CC(=O)OCCOCCOCC(CC)CCCC (stereo not drawn) [Di(ethylene glycol) 2-ethylhexyl ether acrylate] the data give logP 4.59 and log S -3.693 (log10 mol/L) and log vapor pressure -3.481 (log10 mmHg). For Nc1ccc(/N=N/c2ccc(S(=O)(=O)Nc3ccc(/N=N/c4c(S(=O)(=O)[O-])cc5cc(S(=O)(=O)[O-])c(/N=N/c6ccccc6)c(O)c5c4N)cc3)cc2)c(N)c1.[Na+].[Na+] [C.I. Acid Black 234] the data give melting point 190 °C and logP -1.86. The entry for O=c1c2ccccc2[nH]c2cc3c(=O)c4c(Cl)c(Cl)ccc4[nH]c3cc12 [1,2-Dichloro-5,12-dihydroquinolino[2,3-b]acridine-7,14-dione] lists logP 1.56 and log S -7.067 (log10 mol/L). CC1=CC(C)C(C2OCC3COC(C4CCC(C)=CC4C)N32)CC1 (stereo not drawn) is reported with melting point 100 °C and BP 305 °C and logP 3.38 and log S -5.918 (log10 mol/L) and log vapor pressure -2.87 (log10 mmHg). The entry for O=S(=O)(F)C(F)(F)C(F)(F)OC(F)(Cl)C(F)(F)Cl (stereo not drawn) [4,5-Dichloroperfluoro-3-oxapentanesulfonyl fluoride] lists BP 121.2 °C and logP 1.8 and log S -5.956 (log10 mol/L) and log vapor pressure 1.137 (log10 mmHg).

CCCCNc1ccc2c3c(cccc13)C(=O)N(CCCC)C2=O [Solvent Yellow 43] has logP 4.643 and log S -6.806 (log10 mol/L). For C1=CCC(C2OCC3(CO2)COC(C2CC=CCC2)OC3)CC1 (stereo not drawn) [3,9-Dicyclohex-3-enyl-2,4,8,10-tetraoxaspiro[5.5]undecane] the data give melting point 91.1 °C and logP 5.45 and log S -5.242 (log10 mol/L) and log vapor pressure -6.627 (log10 mmHg). CCCCCCCCSCc1cc(C)c(O)c(CSCCCCCCCC)c1 [2-Methyl-4,6-bis[(octylthio)methyl]phenol] is reported with melting point 14.07 °C and log S -5.327 (log10 mol/L) and log vapor pressure -6.824 (log10 mmHg). CCCC[N+](C)(CCCC)CCCC.COS(=O)(=O)[O-] [Tributylmethylammonium methyl sulfate] has melting point 54 °C and log vapor pressure -6.824 (log10 mmHg). The entry for Cc1nc[nH]c1CN1CCc2c(c3ccccc3n2C)C1=O [Alosetron] lists logP 2 and log S -2.827 (log10 mol/L).

Listed for C[C@@H](NCCCc1cccc(C(F)(F)F)c1)c1cccc2ccccc12 [Cinacalcet]: log S -6.806 (log10 mol/L) and plasma fu 0.05. For C[C@]12CC[C@@H]3C4=C(CC[C@H]3[C@@H]1CC[C@@]2(O)CC#N)CC(=O)CC4 [(17alpha)-17-Hydroxy-3-oxo-19-norpregn-5(10)-ene-21-nitrile] the data give logP 2.15 and log S -3.36 (log10 mol/L). Listed for SC1CCCCC1 [Cyclohexanethiol]: melting point -118.2 °C and log S -3.367 (log10 mol/L). Listed for CCCc1ccc(-c2ccc(-c3ccc(CC)cc3)cc2F)cc1: melting point 72.9 °C and BP 433 °C and log S -7.901 (log10 mol/L) and log vapor pressure -7.431 (log10 mmHg). CCCCCCCCCc1cc(C)cc(Cc2cc(C)cc(CCCCCCCCC)c2O)c1O [Phenol, 2,2'-methylenebis[4-methyl-6-nonyl-] is reported with melting point -19.8 °C and BP 584 °C and log S -6.478 (log10 mol/L) and log vapor pressure -4.658 (log10 mmHg).

CN[C@@H](C)c1cccc(O)c1 [Phenol, 3-[(1S)-1-(methylamino)ethyl]-] is reported with melting point 167.6 °C and logP 0.32 and log vapor pressure -6.235 (log10 mmHg). NC(=O)c1ccc[n+](Cc2ccccc2)c1.[Cl-] [N-Benzylniacinamide, chloride] has melting point 242.5 °C and log vapor pressure -5.292 (log10 mmHg).

Extract of 2 entries:

{"smiles": "Nc1ccc(/N=N/c2ccc(S(=O)(=O)Nc3ccc(/N=N/c4c(S(=O)(=O)[O-])cc5cc(S(=O)(=O)[O-])c(/N=N/c6ccccc6)c(O)c5c4N)cc3)cc2)c(N)c1.[Na+].[Na+]", "name": "C.I. Acid Black 234", "melting point (°C)": "190", "logP": "-1.86"}
{"smiles": "C[C@@H](NCCCc1cccc(C(F)(F)F)c1)c1cccc2ccccc12", "name": "Cinacalcet", "log S (log10 mol/L)": "-6.806", "plasma fu": "0.05"}

Data: OPERA 2.9 data sets, kmansouri/OPERA on GitHub.